In test [1] the target is human activated kallikrein enzyme (Homo sapiens, UniProt P03952). As to the kind of experiment: Inhibition of human activated plasma kallikrein, fluorogenic peptide substrate (PFR-AMC), 500 pM enzyme format. It counts as biochemical. The method, then:
Compounds were evaluated for inhibition of the human activated kallikrein enzyme in two formats of an assay employing a fluorogenic peptide substrate. In one assay format, the concentrations of reagents were as follows: 20 mM Tris pH 7.5, 1 mM EDTA, 150 mM sodium chloride, 0.1% PEG-400, 0.1% Triton X-100, 500 pM activated kallikrein enzyme, […] Pro-Phe-Arg-7-amido-4-methylcoumarin (PFR-AMC) substrate. Prior to reaction initiation with substrate, enzyme and inhibitors were preincubated for 30 min at room temperature. After initiation with substrate, reactions were incubated for 10 min at room temperature and fluorescence emission at 460 nm from 380 nm excitation measured with a microplate reader. In another assay format, the concentrations of reagents were as follows: 20 mM Tris pH 7.5, 1 mM EDTA, 150 mM sodium chloride, 0.1% PEG-400, 0.1% Triton X-100, 5 pM activated kallikrein enzyme, 300 uM PFR-AMC substrate. Prior to reaction initiation with substrate, enzyme and inhibitors were preincubated for 30 min at room temperature. After initiation with substrate, reactions were incubated for 18 hr at room temperature and fluorescence emission at 460 nm from 380 nm excitation measured with a microplate reader.
Table 8 provides the results of the assay in the format with 500 pM activated kallikrein assay.

By UniProt entry, the sequences of proteins in these tests, tags left out. Residues count along the entry.
UniProt P03952, 20-390 partner limits assumed: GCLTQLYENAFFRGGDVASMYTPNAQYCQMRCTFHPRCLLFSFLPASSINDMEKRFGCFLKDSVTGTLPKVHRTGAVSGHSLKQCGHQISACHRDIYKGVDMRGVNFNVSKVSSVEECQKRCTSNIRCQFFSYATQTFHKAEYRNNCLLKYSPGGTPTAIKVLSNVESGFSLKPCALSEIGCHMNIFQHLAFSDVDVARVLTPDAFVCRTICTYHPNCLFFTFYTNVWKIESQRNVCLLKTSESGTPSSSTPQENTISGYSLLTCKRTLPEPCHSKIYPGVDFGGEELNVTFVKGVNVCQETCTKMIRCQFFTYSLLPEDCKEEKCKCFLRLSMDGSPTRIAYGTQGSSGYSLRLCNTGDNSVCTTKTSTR
UniProt P03952, 391-638 limits assumed: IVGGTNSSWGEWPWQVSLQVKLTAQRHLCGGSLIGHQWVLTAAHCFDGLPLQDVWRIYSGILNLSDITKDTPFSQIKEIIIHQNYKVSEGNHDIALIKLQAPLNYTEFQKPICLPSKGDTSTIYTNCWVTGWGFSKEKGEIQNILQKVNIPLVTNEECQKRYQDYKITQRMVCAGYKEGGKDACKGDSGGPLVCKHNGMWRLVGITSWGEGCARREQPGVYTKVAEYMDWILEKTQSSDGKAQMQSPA

A further test concerns the target T1, plasma kallikrein (Homo sapiens, UniProt P03952).
T1 construct: from tissue; host or cells: sodium citrate collected human plasma
As to the kind of experiment: Neat human plasma assay (fluorogenic peptide), contact pathway-activated plasma. Type of test: biochemical. The settings on record: read-out: Human Plasma Assay: IC90. Here is the method: To analyze inhibition of plasma kallikrein in an ex vivo setting, the potency of compounds was measure in contact pathway-activated plasma assays. In a fluorogenic peptide substrate assay, test compounds dissolved in DMSO were added to sodium citrate collected human or rat plasma in a 96-well microplate. Alternatively, citrated plasma was collected from rats administered the compounds orally or by IV. 10 nM of human FXIIa (Enzyme Research Laboratories) diluted in PKa buffer (20 mM Tris-HCl, pH 7.5, 150 mM NaCl, 1 mM EDTA, 0.100 PEG-8000, and 0.1% Triton X-100) was added to the plasma, followed by the 100 μM of the profluorescent, synthetic plasma kallikrein substrate PFR-AMC (also diluted in PKa buffer). Final plasma concentration in the reaction was […]. Fluorescence was immediately monitored by excitation/emission wavelengths of 360 nm/480 nm respectively over a period of 5 minutes in a microplate reader. The resulting linear increase in fluorescence emission (reflecting PKa proteolysis of PFR-AMC substrate) was fit to extract a proteolytic rate (fluorescent units over time), and this rate was subsequently plotted against compound inhibitor concentration. Resulting plots were fit to a standard 4-parameter IC50/C90 equation to determine min/max values, IC50/90, and slope. All experimental steps were performed at room temperature.

The mark [2] stands for this setting: 500 pM activated kallikrein, PFR-AMC substrate, 30 min preincubation, 10 min reaction, room temperature, read-out: Primary Dose Response Assay: Average EC50.

Where two headings read alike, the source gives them in different places.

For the compound `Cc1ccnc([C@H]2C[C@@H]2C(=O)Nc2cc(NCc3ccc(N4CC5C(C4)C5(F)F)nc3C)nc(C)n2)n1` (stereo partly drawn) [Example 88, (S,2S)—N-(6-(((6-(6,6-difluoro-3-azabicyclo[3.1.0]hexan-3-yl)-2-methylpyridin-3-yl)methyl)amino)-2-methylpyrimidin-4-yl)-2-(4-methylpyrimidin-2-yl)cyclopropane-1-carboxamide], in test [1], the EC50 (as a rule, the concentration needed to bring the measured effect to its halfway point) is 0.0025 to 0.025 µM. For the same compound, the IC90 (commonly the concentration needed for an effect of 90%) on plasma kallikrein is 5 to 65 µM.

Regarding “(1S,2S)—N-(6-(((R^•)-1-(5-cyclopropyl-7-(3-methyl-2,4-dioxoimidazolidin-1-yl)pyrazolo[1,5-a]pyrimidin-2-yl)ethyl)amino)pyrimidin-4-yl)-2-(4-methylpyrimidin-2-yl)cyclopropane-1-carboxamide [Example 104]”, the EC50 in test [1] (setting [2]) fell in the range of 0.0025 to 0.025 µM.

In test [1], `Cc1ccnc([C@H]2C[C@@H]2C(=O)Nc2cc(NC(C)c3cn4nc(C5CC5)cc(N5CC(=O)N(C)C5=O)c4n3)nc(C)n2)n1` (stereo partly drawn) [Example 89, (1S,2S)—N-(6-((1-(6-cyclopropyl-8-(3-methyl-2,4-dioxoimidazolidin-1-yl)imidazo[1,2-b]pyridazin-2-yl)ethyl)amino)-2-methylpyrimidin-4-yl)-2-(4-methylpyrimidin-2-yl)cyclopropane-1-carboxamide] had an EC50 of less than 0.0025 µM. On plasma kallikrein, the IC90 lay within 0.5 to 5 µM.

In test [1], `Cc1ccnc([C@H]2C[C@@H]2C(=O)Nc2cc(N[C@H](C)c3cc4cc(C5CC5)cc(N5CC6CC6C5=O)n4n3)ncn2)n1` (stereo partly drawn) [Example 103, (1S,2S)—N-(6-(((1R^•)-1-(5-cyclopropyl-7-(2-oxo-3-azabicyclo[3.1.0]hexan-3-yl)pyrazolo[1,5-a]pyridin-2-yl)ethyl)amino)pyrimidin-4-yl)-2-(4-methylpyrimidin-2-yl)cyclopropane-1-carboxamide] showed an EC50 of less than 0.0025 µM. Besides, at plasma kallikrein, the IC90 was less than 0.5 µM.

For `Cc1ccnc([C@H]2C[C@@H]2C(=O)Nc2cc(N[C@H](C)c3cc4cc(C5CC5)cc(N5CC(=O)N(C)C5=O)n4n3)ncn2)n1` [Example 96, (1S,2S)—N-(6-(((R^•)-1-(5-cyclopropyl-7-(3-methyl-2,4-dioxoimidazolidin-1-yl)pyrazolo[1,5-a]pyridin-2-yl)ethyl)amino)pyrimidin-4-yl)-2-(4-methylpyrimidin-2-yl)cyclopropane-1-carboxamide], the concentration for a half-maximal effect (EC50) in test [1] (setting [2]) fell in the range of 0.025 to 0.5 µM.

On to `Cc1ccnc([C@H]2C[C@@H]2C(=O)Nc2cc(NC(C)c3cc4cc(C5CC5)cc(N5CC(=O)N(C)C5=O)n4n3)ncn2)n1` (single isomer, unassigned) [Example 95, (1S,2S)—N-(6-(((R *)-1-(5-cyclopropyl-7-(3-methyl-2,4-dioxoimidazolidin-1-yl)pyrazolo[1,5-a]pyridin-2-yl)ethyl)amino)pyrimidin-4-yl)-2-(4-methylpyrimidin-2-yl)cyclopropane-1-carboxamide], for which, in test [1], the EC50 was less than 0.0025 µM. On plasma kallikrein, the IC90 is less than 0.5 µM.

On to “(1S,2S)—N-(6-(((R^•)-1-(5-methyl-7-(3-methyl-2,4-dioxoimidazolidin-1-yl)pyrazolo[1,5-a]pyridin-2-yl)ethyl)amino)pyrimidin-4-yl)-2-(4-methylpyrimidin-2-yl)cyclopropane-1-carboxamide [Example 106]”, for which the EC50 in test [1] (setting [2]) was less than 0.0025 µM. Also, on plasma kallikrein (citrated human plasma, 10 nM human FXIIa activation, 100 μM PFR-AMC, room temperature), the IC90 is less than 0.5 µM.
